Measured values from patent US11667949B2, “Reporter construct and biosensor for interferon second messenger 2-5A” (The Trustees of Princeton University, priority 2018, dated 2023).

System: A549 cells
Experiment: Live cell 2-5A measurements in A549 cells stably expressing FLAG-V6 biosensor
Assay type: cell-based, human
Conditions: IFN-β pre-treatment 24 hours before poly-IC
Experimental: Live cell 2-5A measurements in stable cell lines expressing V6 or V6-Y312A reporters: A549 or HeLa cells stably expressing V6 or V6-Y312A control reporters were seeded at a density of 1·10^4 /well on TC-treated, clear flat bottom white 96-well plates. Before transfection with poly-IC, cells were pre-treated with 100 μM D-luciferin ethyl ester (1% DMSO) (f/c) (Marker Gene Technologies). […] Dilutions of poly-IC were made by diluting the poly-IC/lipofectamine complexes. Luminescence measurements were taken in repeat-mode using plate reader at time intervals shown on the figures. After three hours, fresh D-luciferin ethyl ester (100 μM) was re-supplied at every hour to ensure excess reporter substrate. Luminescence acquisition time was one minute per well. For IFN-β pre-treatment, a dose of 1000 U/mL (f/c) was used 24 hours before poly-IC treatment.

B1: IFN-β: recombinant IFN-β (protein, UniProt P01574 22-187, looked up)
Interferon beta: MSYNLLGFLQRSSNFQCQKLLWQLNGRLEYCLKDRMNFDIPEEIKQLQQFQKEDAALTIYEMLQNIFAIFRQDSSSTGWNETIVENLLANVYHQINHLKTVLEEKLEKEDFTRGKLMSSLHLKRYYGRILHYLKAKEYSHCAWTIVRVEILRNFYFINRLTGYLRN
effect of priming on 2-5A synthesis: ≤ 2 fold
